Results reported in publication PMC6499816, “Molecular determinants regulating selective binding of autophagy adapters and receptors to ATG8 proteins” (Nature Communications, 2019).

Molecular target: T1, GABARAP (Homo sapiens, UniProt O95166)
T1 construct: GST (followed by 3C protease site) (N); made in house; host or cells: bacteria (E. coli BL21 (DE3) pLysS is stated for the GST-ATG8 proteins of the overlay assay)
Assay: BLI, LIR peptide binding to GABARAP
Details: Fig. 4c, fit of response vs GABARAP concentration, n=2 independent experiments, read-out: Kd (best-fit value)
Description: For recombinant protein expression in bacteria, a modified plasmid of pGEX-6P2 (GE Healthcare) (referred to as pAL) containing an N-terminal […] followed by a 3C protease cleavage site was used.
Expression was induced by the addition of 0.5 mM IPTG at OD600 = 0.6 and cells were incubated at 25 °C overnight or at 37 °C for 5 h. Harvested cells were lysed in 50 mM Tris-HCl, pH 8.0, 500 mM NaCl, 0.1% Triton X-100, 0.4 mM 4-(2-aminoethyl)-benzenesulfonylfluoride HCl (AEBSF), and 15 µg/ml benzamidine. Fusion protein was batch adsorbed onto Glutathione-Sepharose 4B beads (GE Healthcare). After five washes with wash buffer (50 mM Tris, pH 8.0, 250 mM NaCl, 0.4 mM AEBSF, and 15 µg/ml benzamidine), fusion proteins were eluted in 50 mM Tris, pH 8.0, 2 mM L-glutathione reduced, 0.4 mM AEBSF, and 15 µg/ml benzamidine.
The biosensor tip surface immobilized with a ligand is incubated with an analyte in solution, resulting in an increase in optical thickness at the biosensor tip and a wavelength shift, which is a direct measure of the change in thickness. […] Ligand-loaded SA biosensors were then incubated with different concentrations of ATG8. All binding experiments were performed in solid-black 96-well plates containing 200 μl of solution (25 mM Tris, pH 7.5, 150 mM NaCl, 0.5 mM TCEP, 0.1% Tween-20, 1 mg/ml bovine serum albumin (BSA)) in each well at 25 °C with an agitation speed of 1000 rpm. Each measurement was repeated two to five times.
Peptides were synthesized using FMOC (fluorenylmethoxycarbonyl) solid-phase peptide chemistry by the Francis Crick Peptide Chemistry Technology Platform and are listed in Supplementary Table 2.

Q: How did the Kd turn out when `CC[C@H](C)[C@H](NC(=O)[C@@H](NC(=O)[C@H](CC(C)C)NC(=O)[C@H](CCCCN)NC(=O)[C@H](CC(C)C)NC(=O)[C@@H]1CCCN1C(=O)[C@H](CC(C)C)NC(=O)[C@H](CC(=O)O)NC(=O)[C@H](CCC(=O)O)NC(=O)[C@@H](NC(=O)[C@@H](NC(=O)[C@@H](NC(=O)[C@H](Cc1ccccc1)NC(=O)[C@H](CC(=O)O)NC(=O)[C@H](CCC(=O)O)NC(=O)[C@H](CCC(=O)O)NC(=O)[C@H](CC(=O)O)NC(=O)[C@H](CO)NC(=O)[C@H](CCCCN)NC(=O)[C@H](CCC(N)=O)NC(=O)[C@@H](N)CO)C(C)C)[C@@H](C)CC)C(C)C)[C@@H](C)O)C(=O)O` [PCM1 K1967I] was run?
A: 0.166 µM
